Assay results as given in patent US11548908B2.

Sequences of proteins named here, by UniProt entry; tags and fusion partners are left off.
UniProt P17931, whole entry: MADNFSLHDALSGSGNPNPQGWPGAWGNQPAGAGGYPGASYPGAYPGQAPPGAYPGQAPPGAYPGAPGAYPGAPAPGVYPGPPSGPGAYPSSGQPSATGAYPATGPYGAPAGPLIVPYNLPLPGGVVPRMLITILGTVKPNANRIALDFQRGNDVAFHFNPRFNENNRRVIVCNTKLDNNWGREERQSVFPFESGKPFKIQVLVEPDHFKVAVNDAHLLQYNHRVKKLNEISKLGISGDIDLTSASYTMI

Key:
[1] = tested on: E-selectin; assay: E-selectin competitive binding assay (ELISA; inhibition of sLe^a binding to immobilized E-selectin/Ig chimera); conditions: read-out: ELISA IC50 (E-Selectin Antagonist Activity), biotinylated sLe^a polyacrylamide with streptavidin/HRP, 2 hours at room temperature
Excerpt: An inhibition assay may be used to screen for antagonists of E-selectin. For example, an assay may be performed to characterize the capability of a compound described herein to inhibit (i.e., reduce, block, decrease, or prevent in a statistically or biologically significant manner) interaction of E-selectin with sLe^a or sLe^x. The inhibition assay may be a competitive binding assay, which allows the determination of IC50 values. By way of example, E-selectin/Ig chimera may be immobilized onto a matrix (e.g., a multi-well plate, which may be made from a polymer, such as polystyrene; a test tube, and the like); a composition may be added to reduce nonspecific binding (e.g., a composition comprising non-fat dried milk or bovine serum albumin or other blocking buffer routinely used by a person skilled in the art); the immobilized E-selectin may be contacted with the candidate compound in the presence of sLe^a comprising a reporter group under conditions and for a time sufficient to permit sLe^a to bind to the immobilized E-selectin; the immobilized E-selectin may be washed; and the amount of sLe^a bound to immobilized E-selectin may be detected. Variations of such steps can be readily and routinely accomplished by a person of ordinary skill in the art. […]

[2] = target: galectin-3 (Homo sapiens, UniProt P17931); assay: Galectin-3 ELISA assay (inhibition of galectin-3 binding to Galβ1-3GlcNAc polymer); conditions: read-out: ELISA IC50 (Galectin-3 Antagonist Activity), Galβ1-3GlcNAc polymer on streptavidin-coated plate, 1.5 hours at room temperature
Excerpt: An inhibition assay may be used to screen for antagonists of galectin-3. For example, an assay may be performed to characterize the capability of a compound described herein to inhibit interaction of galectin-3 with a Galβ1-3GcNAc carbohydrate structure. The inhibition assay may be a competitive binding assay, which allows the determination of IC50 values. By way of example, a Galβ1-3GlcNAc polymer may be immobilized onto a matrix; a composition may be added to reduce nonspecific binding; the immobilized Galβ1-3GlcNAc polymer may be contacted with the candidate compound in the presence of galectin-3 group under conditions and for a time sufficient to permit galectin-3 to bind to the immobilized Galβ1-3GlcNAc polymer; the immobilized Galβ1-3GlcNAc polymer may be washed; and the amount of galectin-3 bound to the immobilized Galβ1-3GlcNAc polymer may be detected. Variations of such steps can be readily and routinely accomplished by a person of ordinary skill in the art.
Galectin-3 antagonists were evaluated for their ability to inhibit binding of galectin-3 to a Galβ1-3GlcNAc carbohydrate structure. The detailed protocol was as follows. A 1 ug/mL suspension of a Galβ1-3GlcNAcβ1-3Galβ1-4GlcNAcβ-PAA-biotin polymer (Glycotech, catalog number 01-096) was prepared. […] The absorbance at 450 nm (A450) was measured using a FlexStation 3 plate reader (Molecular Devices). […]

## CCC1CC(C(=O)NCCNC(=O)C2CC(OC3OC(CO)C(O)C(n4cc(-c5cccc(F)c5)nn4)C3O)C(O)C(n3cc(-c4cccc(F)c4)nn3)C2)CC(OC2OC(CO)C(O)C(OC(CC3CCCCC3)C(=O)N3CCC3)C2NC(C)=O)C1OC1OC(C)C(O)C(O)C1O (centres unmarked)
[1]
  IC50: 780 nM
[2]
  IC50: 110 nM
